Measured values as given in US8883856B2, “Compositions and methods for the treatment of inflammatory diseases using topoisomerase inhibitors” (priority 2000, dated 2014).

System: rat carotid artery
Format: in vivo
Conditions: applied to the perivascular side of the rat carotid artery
Text: In this model of restenosis, a balloon catheter is used to induce damage to the lumen of carotid arteries in rats. This damage causes extensive intimal hyperplasia and luminal narrowing, characteristic of restenosis. To determine the effect of drugs as antirestenosis agents, a polymeric dosage form of a drug is applied to the outside of the artery (perivascular application).
Wistar rats weighing 400 g to 500 g were anesthetized with halothane. A vertical incision was made over the trachea and the left carotid artery was exposed. Two ligatures were placed around the external carotid artery and an arteriotomy was made between them. A 2 French Fogarty balloon catheter was introduced into the external carotid artery and pushed into the left common carotid artery and the balloon was inflated with saline. The catheter was passed up and down the entire length of the carotid artery three times to stretch the vessel and denude the endothelium. The catheter was removed and the ligatures were tied off on the external carotid artery. […] The wound was then closed and the animals recovered. After 14 days, the rats were sacrificed and pressure perfused at 100 mmHg with 10% buffered formaldehyde. […] Sections were stained with hematoxylin-and-eosin and Movat's stains and digitized for computer assisted morphometric analysis to quantify luminal narrowing and intimal hyperplasia.

Question: `O=C1C=CC(=O)c2c(O)cccc21` [juglone] was tested. Which “necrosis or toxicity after perivascular application” value did it give?
Answer: excessive toxicities
